Results reported in patent publication US12171806B2, “Therapeutic regimens and methods for lowering blood glucose and/or body weight using GLP-1R and GCGR balanced agonists” (priority 2021, dated 2024).

Assay: Phase 1 MAD study of ALT-801: adverse events (TEAEs), safety overview

## CC[C@H](C)[C@H](NC(=O)[C@H](Cc1ccccc1)NC(=O)[C@H](CCC(=O)O)NC(=O)[C@@H]1CCCCNC(=O)CC[C@H](NC(=O)[C@H](CC(=O)O)NC(=O)[C@H](CC(C)C)NC(=O)[C@H](Cc2ccc(O)cc2)NC(=O)[C@H](CCCCN)NC(=O)[C@H](CO)NC(=O)[C@H](Cc2ccc(O)cc2)NC(=O)[C@H](CC(=O)O)NC(=O)[C@H](CO)NC(=O)[C@@H](NC(=O)[C@H](Cc2ccccc2)NC(=O)[C@@H](NC(=O)CNC(=O)[C@H](CCC(N)=O)NC(=O)C(C)(C)NC(=O)[C@@H](N)Cc2c[nH]cn2)[C@@H](C)O)[C@@H](C)O)C(=O)N[C@@H](CCCCNC(=O)[C@H]2O[C@@H](OCCCCCCCCCCCCCCCCCC(=O)O)[C@H](O)[C@@H](O)[C@@H]2O)C(=O)N[C@@H](C)C(=O)N[C@@H](C)C(=O)N1)C(=O)N[C@@H](CCC(N)=O)C(=O)N[C@@H](Cc1c[nH]c2ccccc12)C(=O)N[C@@H](CC(C)C)C(=O)N[C@@H](CC(C)C)C(=O)N[C@@H](CCC(N)=O)C(=O)N[C@H](C(N)=O)[C@@H](C)O [ALT-801, pemvidutide]
One subject receiving the 1.8 mg dose, with subsequent resolution
  ALT elevations: *One subject receiving the 1.8 mg dose and one receiving placebo experienced 3-5 times ALT elevations with subsequent resolutions. Most frequently mild at 1.8 mg dose with on-drug resolution and not requiring treatment. No study discontinuations due to adverse events (AEs).
Overall (N = 27)
  Any TEAE; Mild; %: (44.4%)
  Any TEAE; Mild; n: 12
  Any TEAE; Moderate; %: (40.7%)
  Any TEAE; Moderate; n: 11
  Any TEAE; PLT; %: (0.0%)
  Any TEAE; PLT; n: 0
  Any TEAE; Severe; %: (0.0%)
  Any TEAE; Severe; n: 0
  TEAE Abdominal discomfort; Mild; %: (7.4%)
  TEAE Abdominal discomfort; Mild; n: 2
  TEAE Abdominal discomfort; Moderate; %: (0.0%)
  TEAE Abdominal discomfort; Moderate; n: 0
  TEAE Abdominal discomfort; PLT; %: (0.0%)
  TEAE Abdominal discomfort; PLT; n: 0
  TEAE Abdominal discomfort; Severe; %: (0.0%)
  TEAE Abdominal discomfort; Severe; n: 0
  TEAE Abdominal distension; Mild; %: (3.7%)
  TEAE Abdominal distension; Mild; n: 1
  TEAE Abdominal distension; Moderate; %: (0.0%)
  TEAE Abdominal distension; Moderate; n: 0
  TEAE Abdominal distension; PLT; %: (0.0%)
  TEAE Abdominal distension; PLT; n: 0
  TEAE Abdominal distension; Severe; %: (0.0%)
  TEAE Abdominal distension; Severe; n: 0
  TEAE Abdominal pain; Mild; %: (18.5%)
  TEAE Abdominal pain; Mild; n: 5
  TEAE Abdominal pain; Moderate; %: (0.0%)
  TEAE Abdominal pain; Moderate; n: 0
  TEAE Abdominal pain; PLT; %: (0.0%)
  TEAE Abdominal pain; PLT; n: 0
  TEAE Abdominal pain; Severe; %: (0.0%)
  TEAE Abdominal pain; Severe; n: 0
  TEAE Anaemia; Mild; %: (3.7%)
  TEAE Anaemia; Mild; n: 1
  TEAE Anaemia; Moderate; %: (0.0%)
  TEAE Anaemia; Moderate; n: 0
  TEAE Anaemia; PLT; %: (0.0%)
  TEAE Anaemia; PLT; n: 0
  TEAE Anaemia; Severe; %: (0.0%)
  TEAE Anaemia; Severe; n: 0
  TEAE Application site bruise; Mild; %: (0.0%)
  TEAE Application site bruise; Mild; n: 0
  TEAE Application site bruise; Moderate; %: (0.0%)
  TEAE Application site bruise; Moderate; n: 0
  TEAE Application site bruise; PLT; %: (0.0%)
  TEAE Application site bruise; PLT; n: 0
  TEAE Application site bruise; Severe; %: (0.0%)
  TEAE Application site bruise; Severe; n: 0
  TEAE Application site erythema; Mild; %: (3.7%)
  TEAE Application site erythema; Mild; n: 1
  TEAE Application site erythema; Moderate; %: (0.0%)
  TEAE Application site erythema; Moderate; n: 0
  TEAE Application site erythema; PLT; %: (0.0%)
  TEAE Application site erythema; PLT; n: 0
  TEAE Application site erythema; Severe; %: (0.0%)
  TEAE Application site erythema; Severe; n: 0
  TEAE Blood and lymphatic system disorders; Mild; %: (3.7%)
  TEAE Blood and lymphatic system disorders; Mild; n: 1
  TEAE Blood and lymphatic system disorders; Moderate; %: (0.0%)
  TEAE Blood and lymphatic system disorders; Moderate; n: 0
  TEAE Blood and lymphatic system disorders; PLT; %: (0.0%)
  TEAE Blood and lymphatic system disorders; PLT; n: 0
  TEAE Blood and lymphatic system disorders; Severe; %: (0.0%)
  TEAE Blood and lymphatic system disorders; Severe; n: 0
  TEAE Cardiac disorders; Mild; %: (7.4%)
  TEAE Cardiac disorders; Mild; n: 2
  TEAE Cardiac disorders; Moderate; %: (0.0%)
  TEAE Cardiac disorders; Moderate; n: 0
  TEAE Cardiac disorders; PLT; %: (0.0%)
  TEAE Cardiac disorders; PLT; n: 0
  TEAE Cardiac disorders; Severe; %: (0.0%)
  TEAE Cardiac disorders; Severe; n: 0
  TEAE Constipation; Mild; %: (11.1%)
  TEAE Constipation; Mild; n: 3
  TEAE Constipation; Moderate; %: (7.4%)
  TEAE Constipation; Moderate; n: 2
  TEAE Constipation; Potentially PLT; %: (0.0%)
  TEAE Constipation; Potentially PLT; n: 0
  TEAE Constipation; Severe; %: (0.0%)
  TEAE Constipation; Severe; n: 0
  TEAE Diarrhoea; Mild; %: (7.4%)
  TEAE Diarrhoea; Mild; n: 2
  TEAE Diarrhoea; Moderate; %: (0.0%)
  TEAE Diarrhoea; Moderate; n: 0
  TEAE Diarrhoea; PLT; %: (0.0%)
  TEAE Diarrhoea; PLT; n: 0
  TEAE Diarrhoea; Severe; %: (0.0%)
  TEAE Diarrhoea; Severe; n: 0
  TEAE Dyspepsia; Mild; %: (3.7%)
  TEAE Dyspepsia; Mild; n: 1
  TEAE Dyspepsia; Moderate; %: (0.0%)
  TEAE Dyspepsia; Moderate; n: 0
  TEAE Dyspepsia; PLT; %: (0.0%)
  TEAE Dyspepsia; PLT; n: 0
  TEAE Dyspepsia; Severe; %: (0.0%)
  TEAE Dyspepsia; Severe; n: 0
  TEAE Early satiety; Mild; %: (3.7%)
  TEAE Early satiety; Mild; n: 1
  TEAE Early satiety; Moderate; %: (0.0%)
  TEAE Early satiety; Moderate; n: 0
  TEAE Early satiety; PLT; %: (0.0%)
  TEAE Early satiety; PLT; n: 0
  TEAE Early satiety; Severe; %: (0.0%)
  TEAE Early satiety; Severe; n: 0
  TEAE Eye disorders; Mild; %: (3.7%)
  TEAE Eye disorders; Mild; n: 1
  TEAE Eye disorders; Moderate; %: (0.0%)
  TEAE Eye disorders; Moderate; n: 0
  TEAE Eye disorders; PLT; %: (0.0%)
  TEAE Eye disorders; PLT; n: 0
  TEAE Eye disorders; Severe; %: (0.0%)
  TEAE Eye disorders; Severe; n: 0
  TEAE Eye pain; Mild; %: (3.7%)
  TEAE Eye pain; Mild; n: 1
  TEAE Eye pain; Moderate; %: (0.0%)
  TEAE Eye pain; Moderate; n: 0
  TEAE Eye pain; PLT; %: (0.0%)
  TEAE Eye pain; PLT; n: 0
  TEAE Eye pain; Severe; %: (0.0%)
  TEAE Eye pain; Severe; n: 0
  TEAE Fatigue; Mild; %: (7.4%)
  TEAE Fatigue; Mild; n: 2
  TEAE Fatigue; Moderate; %: (0.0%)
  TEAE Fatigue; Moderate; n: 0
  TEAE Fatigue; PLT; %: (0.0%)
  TEAE Fatigue; PLT; n: 0
  TEAE Fatigue; Severe; %: (0.0%)
  TEAE Fatigue; Severe; n: 0
  TEAE Food poisoning; Mild; %: (0.0%)
  TEAE Food poisoning; Mild; n: 0
  TEAE Food poisoning; Moderate; %: (3.7%)
  TEAE Food poisoning; Moderate; n: 1
  TEAE Food poisoning; PLT; %: (0.0%)
  TEAE Food poisoning; PLT; n: 0
  TEAE Food poisoning; Severe; %: (0.0%)
  TEAE Food poisoning; Severe; n: 0
  TEAE Fungal infection; Mild; %: (3.7%)
  TEAE Fungal infection; Mild; n: 1
  TEAE Fungal infection; Moderate; %: (0.0%)
  TEAE Fungal infection; Moderate; n: 0
  TEAE Fungal infection; PLT; %: (0.0%)
  TEAE Fungal infection; PLT; n: 0
  TEAE Fungal infection; Severe; %: (0.0%)
  TEAE Fungal infection; Severe; n: 0
  TEAE Fungal skin; Mild; %: (3.7%)
  TEAE Fungal skin; Mild; n: 1
  TEAE Gastrointestinal disorders; Mild; %: (40.7%)
  TEAE Gastrointestinal disorders; Mild; n: 11
  TEAE Gastrointestinal disorders; Moderate; %: (33.3%)
  TEAE Gastrointestinal disorders; Moderate; n: 9
  TEAE Gastrointestinal disorders; PLT; %: (0.0%)
  TEAE Gastrointestinal disorders; PLT; n: 0
  TEAE Gastrointestinal disorders; Severe; %: (0.0%)
  TEAE Gastrointestinal disorders; Severe; n: 0
  TEAE Haematemesis; Mild; %: (3.7%)
  TEAE Haematemesis; Mild; n: 1
  TEAE Haematemesis; Moderate; %: (0.0%)
  TEAE Haematemesis; Moderate; n: 0
  TEAE Haematemesis; PLT; %: (0.0%)
  TEAE Haematemesis; PLT; n: 0
  TEAE Haematemesis; Severe; %: (0.0%)
  TEAE Haematemesis; Severe; n: 0
  TEAE Infections and infestations; Mild; %: (25.9%)
  TEAE Infections and infestations; Mild; n: 7
  TEAE Infections and infestations; Moderate; %: (0.0%)
  TEAE Infections and infestations; Moderate; n: 0
  TEAE Infections and infestations; PLT; %: (0.0%)
  TEAE Infections and infestations; PLT; n: 0
  TEAE Infections and infestations; Severe; %: (0.0%)
  TEAE Infections and infestations; Severe; n: 0
  TEAE Injection site bruising; Mild; %: (3.7%)
  TEAE Injection site bruising; Mild; n: 1
  TEAE Injection site bruising; Moderate; %: (0.0%)
  TEAE Injection site bruising; Moderate; n: 0
  TEAE Injection site bruising; PLT; %: (0.0%)
  TEAE Injection site bruising; PLT; n: 0
  TEAE Injection site bruising; Severe; %: (0.0%)
  TEAE Injection site bruising; Severe; n: 0
